One substance from patent US20070218504A1, “HUMAN LEPTIN-DERIVED POLYPEPTIDES AND USES THEREOF” (UNIVERSITY OF PITTSBURGH, priority 2006, published 2007) can be followed below.

This assay concerns tyrosine phosphorylation of STAT3. Put plainly: Leptin-induced tyrosine phosphorylation of STAT3 in HEK293 cells over-expressing OB-Rb in the presence of CRP (Western blot). Type of assay: cell-based, human. The note with it: separate control, concentrations much higher than CRP. The procedure: To determine if the interaction between CRP and leptin dampens the cellular actions of leptin, the ability of leptin to stimulate tyrosine phosphorylation of STAT3 and PI3-kinase activity was assessed in the presence of CRP in vitro. HEK293 cells over-expressing OB-Rb were serum starved for 2 hours before addition of leptin and CRP (CHEMICON or EMD Biosciences). Leptin, in the presence or absence of CRP, was pre-incubated in μ-MEM (with additional 1 mM Ca^2+) for 30 minutes at 37° C. before being applied to the cells. After a 30-minute incubation with leptin, the cells were harvested in lysis buffer (18). The resultant protein extract was subjected to a Western blot analysis using an anti-phospho-STAT3 specific antibody (Cell Signaling, Beverly, Mass.). For studies involving primary hypothalamic neurons, the hypothalamus from rats was surgically isolated immediately after euthanasia, and placed in the DMEM for incubation with leptin in the presence or absence of CRP.

Regarding “human serum albumin: control serum protein [reference compound]”, the “effect of control serum protein on leptin-induced STAT3 phosphorylation / leptin signaling” value is “no appreciable effect”.
